Measurements reported in patent publication US20090178158A1, “RESISTANCE AGAINST PARASITIC WEEDS” (Plant Research International B.V., priority 2005, published 2009).

Assays:
[1] = test system: rice; conditions: 0.1 μM irrigation and 0.001-0.1 μM spraying of fluridone
[2] = test system: maize seedlings; conditions: in vivo

For fluridone, the “bleaching of the leaves” value [1] was “did not occur” and the “morphology / appearance of treated seedlings” value [2] was “white with green tips”.
